We go through two compounds from US9605029B2, “Antibody-binding peptide” (NATIONAL INSTITUTE OF ADVANCED INDUSTRIAL SCIENCE AND …, priority 2013, dated 2017).

SMILES strings stand for the structures. Where two headings read alike, the source gives them in different places.

The target of the assay is T1, Fc region prepared by digesting human monoclonal antibody IgG with papain (Homo sapiens, UniProt P01857).
T1 construct: The Fc region to be immobilized to a sensor chip was prepared, by digesting human monoclonal antibody IgG with papain; made in house; host or cells: papain digest of human monoclonal IgG (Pierce Fab Preparation Kit), then MabSelect SuRe, HiTrap DEAE and Superdex 200
Nature of the assay: Surface plasmon resonance, polypeptides on immobilized Fc region prepared from human monoclonal IgG (Example 2, 3) and 4); Example 8). It is filed as binding. The method, then: 3) In this section, it will be stated as an example that the binding activity of polypeptides consisting of amino acid sequences of SEQ ID NOs: 24 to 27 (referred to as pep14, pep11, pep21 and pep24, respectively) was measured by surface plasmon resonance. The polypeptides, which were previously synthesized in an organic chemical manner were purchased from bioSYNTHESIS, were diluted with HBS-T buffer and controlled so as to have a concentration of 500, 400, 300, 200 or 100 nM. The surface plasmon resonance test was performed by using Biacore T100 (GE Healthcare). […] The binding activity of the synthesized peptides prepared was measured and equilibrium dissociation constants were determined. […]
4) In this section, it will be stated as an example that the binding activity of a polypeptide consisting of an amino acid sequence (referred to as p17) of SEQ ID NO: 57 was measured by surface plasmon resonance. […]
Subsequently, the binding activity of p17 prepared was measured by surface plasmon resonance by use of Biacore T100 (GE Healthcare). […]
Subsequently, the binding activity of five types of polypeptides prepared above was analyzed by surface plasmon resonance. […] An Fc region was immobilized to Sensor Chip CM5 (GE Healthcare) and binding activity was analyzed in the same manner as in Example 2, 4). […]

One may read the Kd as a measure of binding affinity in units of concentration. Regarding `CSCC[C@H](NC(=O)[C@H](CCCNC(=N)N)NC(=O)[C@H](CCC(N)=O)NC(=O)[C@H](Cc1c[nH]c2ccccc12)NC(=O)[C@H](CC(=O)O)NC(=O)[C@@H]1CCCN1C(=O)[C@H](CCC(=O)O)NC(=O)[C@H](Cc1c[nH]c2ccccc12)NC(=O)[C@@H](NC(=O)CNC(=O)[C@@H](NC(=O)[C@H](CCC(=O)O)NC(=O)[C@@H]1CCCN1C(=O)[C@H](CC(=O)O)NC(=O)[C@H](Cc1ccc(O)cc1)NC(=O)[C@H](Cc1ccc(O)cc1)NC(=O)[C@@H](NC(=O)[C@H](C)NC(=O)[C@H](Cc1c[nH]c2ccccc12)NC(=O)[C@@H](NC(=O)[C@H](CC(C)C)NC(=O)[C@H](CCC(=O)O)NC(=O)CNC(=O)[C@H](CC(C)C)NC(=O)[C@H](Cc1c[nH]cn1)NC(=O)[C@H](Cc1c[nH]c2ccccc12)NC(=O)[C@H](C)NC(=O)[C@H](C)NC(=O)[C@@H](N)CC(=O)O)C(C)C)[C@@H](C)O)[C@@H](C)O)[C@@H](C)O)C(=O)N[C@@H](CC(C)C)C(=O)NCC(=O)N[C@@H](CCC(N)=O)C(=O)O` [SEQ ID NO: 27], the Kd (synthetic polypeptide, read-out: equilibrium dissociation constants KD) turned out to be 220 nM. As to `CC[C@H](C)[C@H](NC(=O)CNC(=O)[C@@H]1CCCN1C(=O)CN)C(=O)N[C@@H](CO)C(=O)N[C@@H](C)C(=O)N[C@@H](Cc1ccccc1)C(=O)N[C@@H](CO)C(=O)N1CCC[C@H]1C(=O)NCC(=O)N[C@@H](CCCNC(=N)N)C(=O)NCC(=O)N[C@H](C(=O)N[C@@H](Cc1ccc(O)cc1)C(=O)N[C@@H](CC(=O)O)C(=O)N1CCC[C@H]1C(=O)N[C@@H](CCC(=O)O)C(=O)N[C@H](C(=O)NCC(=O)N[C@H](C(=O)N[C@@H](Cc1c[nH]c2ccccc12)C(=O)N[C@@H](Cc1ccc(O)cc1)C(=O)N[C@@H](CC(=O)O)C(=O)N[C@@H](C)C(=O)N[C@@H](C)C(=O)N[C@@H](Cc1c[nH]c2ccccc12)C(=O)N[C@@H](Cc1c[nH]cn1)C(=O)N[C@@H](CC(C)C)C(=O)NCC(=O)N[C@@H](CCC(=O)O)C(=O)N[C@@H](CC(C)C)C(=O)N[C@H](C(=O)N[C@@H](Cc1c[nH]c2ccccc12)C(=O)N[C@@H](C)C(=O)N[C@H](C(=O)N[C@@H](Cc1ccc(O)cc1)C(=O)N[C@@H](Cc1ccc(O)cc1)C(=O)N[C@@H](CC(=O)O)C(=O)N1CCC[C@H]1C(=O)N[C@@H](CCC(=O)O)C(=O)N[C@H](C(=O)NCC(=O)N[C@H](C(=O)N[C@@H](Cc1c[nH]c2ccccc12)C(=O)N[C@@H](CCC(=O)O)C(=O)N1CCC[C@H]1C(=O)N[C@@H](CC(=O)O)C(=O)N[C@@H](Cc1c[nH]c2ccccc12)C(=O)N[C@@H](CCC(N)=O)C(=O)N[C@@H](CCCNC(=N)N)C(=O)N[C@@H](C)C(=O)N[C@@H](CC(C)C)C(=O)NCC(=O)N[C@@H](CCC(N)=O)C(=O)O)[C@@H](C)O)[C@@H](C)O)[C@@H](C)O)C(C)C)[C@@H](C)O)[C@@H](C)O)C(C)C` [SEQ ID NO: 178], the Kd (variant polypeptide with alanine substitution, read-out: Equilibrium dissociation constant of p17 variant KD) stood at 180 nM.
